Test results as given in US9517988B2 (Sichuan Haisco Pharmaceutical Co., Ltd., priority 2013, dated 2016).

Legend:
[1] = Righting reflex experiment on mice; settings: both, ICR, mouse, in vivo, iv
Procedure: LD5 (5% lethal dose): dose required to cause 5% of mice to die in a test.
If a normal animal was able to immediately turn its body to normal upright position after being pushed over or made lying on its back, such a reflex was determined as the righting reflex. Otherwise, loss of the righting reflex and the time of loss were recorded, and a reflex recovery time was recorded when the animal restored the righting reflex. The period from finishing of drug administration until loss of the righting reflex was recorded as the anesthesia induction time, and the period from loss of the righting reflex until recovery of the righting reflex was recorded as the anesthesia maintenance time.
TI (therapeutic index, i.e. LD50/ED50), SI (safety index, i.e. LD5/ED95). […]
Indicators such as median effective dose (ED50), median lethal dose (LD50), therapeutic index (TI, i.e. LD50/ED50), safety index (SI, i.e. LD5/ED95), anesthesia induction time, anesthesia maintenance time, and maximum tolerated dose (MTD) were used to evaluate the effect and safety of anesthesia. […] Upon intravenous injection, the time of loss of the righting reflex was recorded. The period from finishing of drug administration until loss of the righting reflex was recorded as the anesthesia induction time, and the period from loss of the righting reflex until recovery of the righting reflex was recorded as the anesthesia maintenance time. […]

[2] = Righting reflex experiment on mice with prodrugs; settings: both sexes, ICR, mouse, in vivo, intravenous injection, prodrugs in physiological saline
Procedure: After adapting to the laboratory environment, the SPF-grade ICR mice were fasted for 12 hours.

## CC(C)c1cccc(C(C)C)c1O [Propofol, reference compound]
[1]
  LD50: 31.3 mg/kg
[2]
  LD50: 31.3 mg/kg
